In US7323465B2, “Alkansulfonamides as endothelin antagonists” (Actelion Pharmaceuticals Ltd., priority 2002, dated 2008) one finds IC50 data, which are given here for 10 compounds.

Amino acid sequences for entries named in this document (tags omitted). Residues count along the entry.
UniProt P24530, 27-442 limits assumed: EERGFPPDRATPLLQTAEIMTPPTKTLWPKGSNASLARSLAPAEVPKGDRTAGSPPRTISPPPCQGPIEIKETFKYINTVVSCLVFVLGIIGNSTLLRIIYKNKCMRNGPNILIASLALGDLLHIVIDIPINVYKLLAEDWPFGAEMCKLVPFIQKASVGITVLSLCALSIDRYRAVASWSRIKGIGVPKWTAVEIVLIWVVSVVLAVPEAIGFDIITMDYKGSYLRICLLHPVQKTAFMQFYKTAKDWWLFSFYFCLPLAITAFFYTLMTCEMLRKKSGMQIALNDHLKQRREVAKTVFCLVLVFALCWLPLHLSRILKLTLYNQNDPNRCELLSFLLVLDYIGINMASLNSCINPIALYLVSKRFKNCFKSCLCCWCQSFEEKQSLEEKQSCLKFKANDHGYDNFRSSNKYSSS
UniProt P25101, 21-427 limits assumed: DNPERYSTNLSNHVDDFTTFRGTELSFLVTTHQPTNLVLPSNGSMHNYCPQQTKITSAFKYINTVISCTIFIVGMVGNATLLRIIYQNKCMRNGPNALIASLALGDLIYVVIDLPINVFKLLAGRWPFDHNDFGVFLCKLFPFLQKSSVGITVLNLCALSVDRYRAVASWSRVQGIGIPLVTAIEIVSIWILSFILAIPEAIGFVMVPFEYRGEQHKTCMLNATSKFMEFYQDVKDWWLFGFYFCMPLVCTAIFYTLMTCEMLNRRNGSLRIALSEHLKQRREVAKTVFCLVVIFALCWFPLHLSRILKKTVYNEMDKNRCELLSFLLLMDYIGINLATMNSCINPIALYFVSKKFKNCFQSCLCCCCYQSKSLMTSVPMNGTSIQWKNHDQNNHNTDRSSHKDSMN

Experiment [1] has as its target human recombinant ETB receptors (Homo sapiens, UniProt P24530). Put plainly: Inhibition of [125I]ET-1 binding to membranes from CHO cells carrying human ETB receptors. To be noted: read-out: IC50 ETB; CHO cell membranes, 8 pM [125I]ET-1, 2 h at 20° C., 2.5% DMSO.
In experiment [2] the target is human recombinant ETA receptors (Homo sapiens, UniProt P25101). Put plainly: Inhibition of [125I]ET-1 binding to membranes from CHO cells carrying human ETA receptors. To be noted: read-out: IC50 ETA; CHO cell membranes, 8 pM [125I]ET-1, 2 h at 20° C., 2.5% DMSO.

By IC50 is commonly meant the concentration that inhibits the measured activity by half. `CCCS(=O)(=O)Nc1ncnc(OCCOc2ncc(Br)cn2)c1Oc1cc(OC)ccc1Cl`: the IC50 in experiment [1] turned out to be 350 nM; in experiment [2] it was 1 nM.

On to `CCCS(=O)(=O)Nc1ncnc(OCCOc2ncc(OC)cn2)c1Oc1cc(OC)ccc1Cl`, for which the IC50 was found to be 417 nM in experiment [1] and 4 nM in experiment [2].

On to `COc1ccc(Cl)c(Oc2c(NS(C)(=O)=O)ncnc2OCCOc2ncc(Br)cn2)c1`, for which the IC50 is 216 nM in experiment [1] and 2 nM in experiment [2].

For `CCS(=O)(=O)Nc1ncnc(OCCOc2ncc(Br)cn2)c1Oc1cc(OC)ccc1Cl`, the IC50 in experiment [1] came to 258 nM; in experiment [2], 1.6 nM.

Consider `CCS(=O)(=O)Nc1ncnc(OCCOc2ncc(SC)cn2)c1Oc1cc(OC)ccc1Cl`, for which the IC50 is 69 nM in experiment [1] and 1 nM in experiment [2].

In the case of `CCCS(=O)(=O)Nc1ncnc(OCCOc2ncc(S(C)(=O)=O)cn2)c1Oc1cc(OC)ccc1Cl`, the IC50 is 236 nM in experiment [1] and 0.6 nM in experiment [2].

`COc1ccc(Cl)c(Oc2c(NS(C)(=O)=O)ncnc2OCCOc2ncc(S(C)(=O)=O)cn2)c1`: in experiment [2], the IC50 turned out to be 2.8 nM.

On to `CCCS(=O)(=O)Nc1ncnc(OCCOc2ncc(SC)cn2)c1Oc1cc(OC)ccc1Cl`, for which the IC50 in experiment [1] was determined as 109 nM; in experiment [2], 0.8 nM.

Take `COc1cnc(OCCOc2ncnc(NS(C)(=O)=O)c2Oc2cc(OC)ccc2Cl)nc1`: the IC50 in experiment [1] was found to be 349 nM; in experiment [2], 8.7 nM.

On to `COc1ccc(Cl)c(Oc2c(NS(C)(=O)=O)ncnc2OCCOc2ncc(SC)cn2)c1`, for which the results for the IC50 in experiment [1] and in experiment [2] were 85 nM and 1.99 nM, respectively.
